## Ab-91 heavy chain CDR variants: yeast mating affinities

Antigen: PDVDLGDISGINAS, a 14-residue peptide of the SARS-CoV-2 spike HR2 region.

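Phage display of a naive human antibody library on the peptide gave the parent. The library (AAYL51) carries one to three amino acid substitutions per variant, with no insertions or deletions. Affinity was read by AlphaSeq, a pooled yeast mating assay with surface-displayed partners. Pairs that bind mate more often; barcode pairs of the diploids are counted by sequencing. Scores were corrected for input abundance and mapped to Kd with protein pairs of known affinity run in the same pool. Each pool was mated in three replicate cultures.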

Parent scFv Ab-91: VL joined to VH by three GGGGS repeats. Changes lie in the heavy chain CDRs alone.
VL: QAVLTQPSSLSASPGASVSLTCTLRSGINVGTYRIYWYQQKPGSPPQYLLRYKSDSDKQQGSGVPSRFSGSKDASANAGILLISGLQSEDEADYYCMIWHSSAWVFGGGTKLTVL
VH: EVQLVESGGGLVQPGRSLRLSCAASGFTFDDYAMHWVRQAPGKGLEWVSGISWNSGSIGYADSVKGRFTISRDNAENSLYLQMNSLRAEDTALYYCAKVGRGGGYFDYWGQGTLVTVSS

Variants are written as CDR1, CDR2 and CDR3 of the heavy chain (limits as in the source). Parent: GFTFDDYAMH, GISWNSGSIGYADSVK, VGRGGGYFDY. Values are log10 of the apparent Kd in nM; lower means stronger binding. A pair that was not seen in that replicate is written "ND"; this usually means weak binding, but a binder can also be missed. In this assay the parent's reference entry averaged 1.86; its copy inside this library read 0.88. As a blank, each scFv also met three strains without target: over library AAYL51, 21% of these pairings were detected, typically at 4.54 and seldom below 3.26. The control count says in how many pairings with the empty strains this scFv gave a signal, with their mean in brackets.

CDR-H1 | CDR-H2 | CDR-H3 | replicates, log10 nM | empty controls
GFTFDDYKMH | GISWNSGSIGGADSVK | VQRGGGYFDY | ND / ND / 3.71 | 2/9 (3.81)
GFTFDDYAMP | GISWNSGSIGYADSSD | VGRGGGYFDY | ND / 4.87 / ND | 3/9 (4.01)
GFTFDDYAME | GISWYSGSIGFADSVK | VGRGGGYFDY | ND / ND / ND | 2/9 (4.61)
GFTFDDYAMH | GHSWNSGSIGYADSVK | VGGAGGYFDY | 4.74 / 5.22 / 4.90 | 8/9 (4.87)
GFTFDDYAMH | GISWNAGSIGYARSVP | VGRGGGYFDY | 5.47 / 4.95 / 6.19 | 4/9 (5.20)
GCTFDDYAMH | GISWNSGSIGYADSID | VGRGGGYFDY | 4.23 / ND / ND | 2/9 (4.18)
GFTFDDYAMH | GISWISGSIGYADSFK | VGRGGMYFDY | ND / ND / ND | 0/9
GFTFDDYAMH | QGSWNFGSIGYADSVK | VGRGGGYFDY | 5.23 / 4.28 / ND | 4/9 (4.25)
GFIFDDYAMH | GISWNSGSIGYADQVK | VSRGGGYFDY | 2.99 / 2.30 / 1.93 | 0/9
GFTFDDKAMH | GISWNSGSIFYADSVK | VGRGMGYFDY | ND / 5.02 / ND | 1/9 (3.74)
GFKFDDYAMH | GISWNSGSIGYAMSVK | VGRSGGYFDY | ND / 4.75 / ND | 0/9
GFTFDDYAMH | GISWNSGVIGYADCVK | YGRGGGYFDY | 2.97 / ND / ND | 1/9 (3.97)
GFTFDDYAMH | GYWWNSGSIGYADSVK | VGRGGGYFDQ | ND / 4.02 / ND | 1/9 (4.16)
GFTFDEYAMH | GISWNSGSIGYADSIK | VGRGGGVFDY | 3.02 / 3.36 / 4.82 | 1/9 (4.33)
GFTFDYSAMH | GISWNSGSIGYADSVK | VGRGPGYFDY | 2.48 / 1.71 / 2.95 | 0/9
GFRFDDYAMH | GISWNSGSIGYADSAK | VVRGGGYFDY | ND / ND / ND | 0/9
GFTFDDYAME | AISWNSGSIGYADSVV | VGRGGGYFDY | ND / 5.83 / 4.58 | 3/9 (3.54)
GFTFDDYAMH | SISWNSGSIGYPDSVK | VGRGGGYFDW | ND / 3.58 / ND | 0/9
GRTFDDYAMH | GISWNSGSIGYADSVH | VGRGIGYFDY | 6.60 / ND / 5.28 | 5/9 (4.51)
GFTFDDYAMH | GISWCSGSILYADSVK | VGRGGGYFDG | ND / ND / ND | 0/9
GFTFDDYAMH | GISWNSGSIGYADSVK | RGRGGGYWDV | 4.00 / ND / ND | 4/9 (3.93)
GFTFDDFAMH | GISWNSGSIQYADYVK | VGRGGGYFDY | 5.32 / ND / ND | 3/9 (3.84)
GFTFDDYAMH | GIIWNSGSIGYADSVK | VGVGGGAFDY | 5.14 / 4.71 / 5.42 | 6/9 (4.54)
GFTFDDYAMH | GISWFSGSIGYIDSVK | QGRGGGYFDY | ND / ND / ND | 0/9
GFTIDDYAMH | GISWNSGSGGYADSVK | VGRGGPYFDY | 4.98 / ND / ND | 1/9 (4.20)
GFTFDDYAMH | GISWNSGSIGYADSVK | VGVAMGYFDY | ND / ND / ND | 0/9
GFTFDDYGMF | GISWNSGSIGYADSVK | VGRGGGYFCY | 4.52 / 4.28 / ND | 4/9 (3.96)
GWTFDDYAKH | GISWNSGSIGYADSVK | VGRGPGYFDY | ND / ND / ND | 0/9
GFTFDDWAMH | GISWNSGSIGYADSVK | WGRGGGYFDY | 4.04 / 3.76 / 3.46 | 2/9 (5.20)
GFTFDDYAMH | GISWNIGSIGLADSVK | VGRFGGYFDY | ND / ND / ND | 1/9 (4.73)
GFTFDDYAMH | GISWNSGERGYADSVK | VGRGGGYFDY | 1.29 / 1.35 / 0.90 | 4/9 (5.21)
GFTFDDYAMH | GISINSGNIGYADYVK | VGRGGGYFDY | ND / 5.49 / ND | 1/9 (3.97)
GFTFDDIAMH | GISWNSGSIGYGPSVK | VGRGGGYFDY | 4.70 / ND / ND | 3/9 (5.30)
GFTFDDYAPL | GISWNSGSIPYADSVK | VGRGGGYFDY | ND / 5.64 / ND | 1/9 (4.32)
GFTFDDYAMH | GISWNSGSIGYADSVS | VKRGRGYFDY | 2.43 / 2.32 / 1.81 | 0/9
GFTFDDYPMH | GIYWNSGSIGYADSVK | VGYGGGYFDY | ND / ND / ND | 0/9
GFTFDDFAMH | GISWNSGSIGYADRMK | VGRGGGYFDY | 2.79 / 2.70 / 2.27 | 0/9
GFTFDDYAMH | GKSWNVGSVGYADSVK | VGRGGGYFDY | ND / ND / ND | 2/9 (4.75)
GFYFDDYAMH | GISWNSGSIGYADSVK | VGRGGGYPDS | 1.19 / 1.29 / 0.44 | 2/9 (4.21)

The first 3 variants above that were never detected:

CDR-H1 | CDR-H2 | CDR-H3 | replicates, log10 nM | empty controls
GFTFDDYAME | GISWYSGSIGFADSVK | VGRGGGYFDY | ND / ND / ND | 2/9 (4.61)
GFTFDDYAMH | GISWISGSIGYADSFK | VGRGGMYFDY | ND / ND / ND | 0/9
GFRFDDYAMH | GISWNSGSIGYADSAK | VVRGGGYFDY | ND / ND / ND | 0/9

Source: Engelhart et al. 2022 (doi:10.1038/s41597-022-01779-4), MIT Lincoln Laboratory and A-Alpha Bio; data file from the FLAb repository.